The test system of experiment [1] is CB1 receptor F3.36A mutation. The settings on record: cited from earlier work.
Experiment [2] concerns CB1 receptor F3.36L mutation. The settings on record: cited from earlier work.
For experiment [3], the system named is CB1 receptor F3.36A mutation.

The values that follow come from publication PMC4863456 (Journal of Chemical Information and Modeling, 2015).

For the compound `Cc1c(C(=O)NN2CCCCC2)nn(-c2ccc(Cl)cc2Cl)c1-c1ccc(Cl)cc1` [rimonabant, N-(Piperidin-1-yl)-5-(4-Chlorophenyl)-1-(2,4-Dichlorophenyl)-4-Methyl-1H -Pyrazole-3-Carboxamide], the results for the “decrease in binding affinity upon mutation” value in experiment [1] and in experiment [2] were 20 fold and 2 fold, respectively. For the same compound, the “decrease in binding affinity upon mutation, as energy” value in experiment [3] is recorded as 1.78 kcal/mol.
